According to patent US8680055B2, “Methods for decreasing steroidogenesis in prostate cancer cells” (University of Southern California, priority 2009, dated 2014):
“Also recorded” adds a separate entry of the source.

Legend:
Type in all cases: cell-based, human
LNCaP cells [1] = experiment: Protein kinase A assay; settings: LH, compared to negative controls, p<0.05
Experimental: Protein kinase A assay. PKA activity was measured using a PKA kinase activity assay kit (Assay Designs, Inc., Ann Arbor, Mich.) according to manufacturer's instructions. The PKA activity was measured in cells treated with LH and in negative controls. Each sample was standardized by protein concentration.

LNCaP cells [2] = experiment: Cell viability assay
Experimental: Cell viability assay. Cells were treated with LH at varying concentrations and incubated with 20 μl of Celltiter 96® Aqueous One Solution Cell Proliferation assay (Promega Co., Madison, Wis.) according to the manufacturer's instruction. The optical density was determined using a microplate reader (SpectraMax Plus) at 490 nm. The cell viability following LH treatment was expressed vs. negative control and plotted as the mean ±SD.

C4-2B cells = experiment: Real-time PCR analysis of steroidogenic gene expression after exposure to LH, C4-2B cells
Experimental: (§1) Real-time PCR analysis. The quantitative measurement of target mRNA was performed using a real-time PCR system (Applied Biosystems 7500, Foster, Calif.) according to the manufacturer's instructions. PCR amplifications were performed with the SYBR Green PCR core reagent (Applied Biosystems) in a volume of 10 μl, with 1 μl of the reverse transcription products. LH and steroidogenic enzyme RNA quantification were assayed with the following primers: AKR1C1, 5′-[…]-3′ (forward), 5′-[…]-3′ (reverse); AKR1C2, 5′-[…]-3′ (forward), 5′-[…]-3′ (reverse); AKR1C3, 5′-[…]-3′ (forward), 5′-[…]-3′ (reverse); CYB5, 5′-gaagagcctgattggacac-3′ (forward), 5% […]-3′ (reverse); CYP11A1, 5′-[…]-3′ (forward), 5′-[…]-3′ (reverse); CYP17A1, 5′-[…]-3′ (forward), 5′-[…]-3′ (reverse); FASN, 5′-[…]-3′ (forward), 5′-[…]-3′ (reverse); HSD3B2, 5′-[…]-3′ (forward), 5′-[…]-3′ (reverse); HSD17B2, 5′-[…]-3′ (forward), 5′-[…]-3′ (reverse); HSD17B3, 5′-[…]-3′ (forward), 5′-[…]-3′ (reverse); RDH5, 5′-cagcaatgcctttgtettca-3′ (forward), 5′-[…]-3′ (reverse); SRD5A1, 5′-[…]-3′ (forward), 5′-[…]-3′ (reverse); SRD5A2, 5′-gccctctcctcatagtgetg-3′ (forward), 5′-[…]-3′ (reverse); StAR, 5′-ggctactcagctcgacctc-3′ (forward), 5′-[…]-3′ (reverse); and LHR, 5′-tcaattcttgtccaatcca-3′(forward), 5′-[…]-3′ (reverse). Each gene under each condition was amplified in triplicate. Analysis was performed with Applied Biosystems' software and the relative expression was standardized using expression of 18S as a reference, 5′-[…]-3′ (forward), 5′-tcgggagtgggtaatttge-3′ (reverse). Results were plotted as the mean ±SD from three experiments.

LNCaP cells [3] = experiment: Cyclic AMP assay; settings: LH 1.0 IU/ml, p<0.05
Experimental: Cyclic AMP assay. The cAMP assay was performed using the correlate-EIA direct cAMP enzyme immunoassay kit (Assay Designs, Inc., Ann Arbor, Mich.) according to manufacturer's instructions.

LNCaP cells [4] = experiment: Real-time PCR analysis of steroidogenic gene expression after exposure to LH, LNCaP cells
Experimental: as §1
(§2) LNCaP cells treated with LH at doses of 0.1 and 1.0 IU/ml for four hours. 5×10^5 cells were seeded and treated with LH for four hours on a 100-mm plastic dish in serum-free RPMI-1640 medium. The quantitative measurement of target mRNA was performed using a real time PCR system (Applied Biosystems 7500, Foster, Calif.) according to the manufacturer's instructions, with 50 cycles for the melting (95° C., 15 s) and annealing/extension (59° C., 60 s) steps. PCR amplifications were performed with SYBR Green PCR core reagent (Applied Biosystems) in a total volume of 10 μl, with 1 μl of the reverse transcription products. Each gene in each experimental condition was amplified in triplicate. Relative gene expression levels (y axis) for the indicated enzymes were normalized by expression of the 18S and compared to the control in the same sample. Unpaired two-sample t-tests were used and a p value <0.05 was considered significant. Results were plotted as mean ±S.D. from at least three experiments.
as §2, with “cells (5×10^5) were seeded and” for “cells”, “for 10 days” for “for four hours. 5×10^5 cells were seeded and treated with LH for four hours”, “in” for “in serum-free”, “RPMI-1640 medium supplemented with 1% charcoal-stripped FBS. LH and medium were replaced every two days.” for “RPMI-1640 medium.”, “gene at” for “gene in”, “experiments. Long-term treatment with LH for 10 days doubled the number of activated genes for steroidogenic enzymes (from 4 to 8) as compared to short-term 4-hour exposure to LH.” for “experiments.”

22Rv1 cells = experiment: Real-time PCR analysis of steroidogenic gene expression after exposure to LH, 22Rv1 cells
Experimental: as §1

LNCaP cells [5] = experiment: Western blot analysis of steroidogenic enzymes in LH-treated cells; settings: LH 5.0 IU/ml for 96 hours
Experimental: Western blot analysis. Equal amounts of protein (10 μg) from cell lysates were heated at 95° C. for 5 min in the sample loading buffer, then subjected to SDS-PAGE and transferred to nitrocellulose membranes. The blots were probed overnight at 4° C. with the appropriate commercially available primary antibodies, including anti-LHR rabbit polyclonal antibody (1:200, Santa Cruz Biotech), anti-LH mouse monoclonal antibody (1:1000, Santa Cruz Biotech, Santa Cruz, Calif.), anti-CYP-17A1 rabbit polyclonal (1:400, Abeam, Cambridge, Mass.), anti-CYP-11A1 rabbit polyclonal antibody (1:400, Abeam), and anti-StAR mouse monoclonal antibody (1:500, Abeam). After incubation with the corresponding horseradish peroxidase-conjugated secondary antibodies, the blots were further probed with corresponding HRP-conjugated antibodies and visualized by enhanced chemiluminescence (Pierce, Rockford, Ill.). Rabbit anti-β-actin antibody (1:2,000, Sigma Chemical Co.) served as loading control. Quantification of the bands was performed with Quantity One software (Bio-Rad Lab, Hercules, Calif.).

LNCaP cells [6] = experiment: Steroid analysis by radioimmunoassay; settings: LH 1.0 IU/ml for 10 days, RIA, compared to controls
Experimental: Steroid analysis by radioimmunoassay. Concentrations of the steroids progesterone and testosterone were determined using radioimmunoassay as described previously (11-13). Data were normalized per 10^6 cells and expressed as the mean ±SD from three 100 ml cell culture dishes per group.

In the case of “LH: Human luteinizing hormone obtained from Fitzgerald Industries Intl.; added externally to prostate cancer cells”, the “increase in PKA activity” value (LNCaP cells [1]) is reported as 34.1%, the “increase in cell viability” value (LNCaP cells [2]; LH 1.0 IU/ml, 72 hours, compared to the control group, p<0.05) is reported as 37% and the cell viability (LNCaP cells [2]; LH at varying concentrations) is reported as “dose-dependent increase; also recorded: increases LNCaP cell viability to a similar degree as dihydrotestosterone (DHT)”. For the same substance, the “number of significantly up-regulated genes, ten day vs short-term exposure” value (C4-2B cells; LH 1.0 IU/ml) was “tripled”, the “increase in the expression levels of up-regulated genes” value (C4-2B cells; LH 1.0 IU/ml, ten day treatment, compared to controls) was 2-6 fold and the steroidogenic gene expression (C4-2B cells; LH for 4 hours and 10 days) was “dose- and time-dependent increase”. For the same substance, the “increase in cAMP level” value (LNCaP cells [3]) was 2.8 fold, the “number of up-regulated genes involved in androgen synthesis, 10 days vs 4-hour exposure” value (LNCaP cells [4]; LH) was “twice as many genes; also recorded: doubled” and the “number of genes involved in steroidogenesis significantly stimulated (out of 14 tested)” value (LNCaP cells [4]; LH 0.1 and 1.0 IU/ml for 4 hours, p<0.05) was 4 genes. For the same substance, the “number of genes involved in steroidogenesis significantly stimulated” value (LNCaP cells [4]; LH 0.1 and 1.0 IU/ml for 10 days, P<0.05) was 8 genes, the “increase in expression of most of the genes examined” value (LNCaP cells [4]; LH 1.0 IU/ml, ten day exposure, compared to controls) was 2-4 fold and the steroidogenic gene expression (LNCaP cells [4]; LH for 4 hours and 10 days) was “dose- and time-dependent increase”. For the same substance, the “expression of StAR, HSD17B3, SRD5A1 and CYP17A1” value (LNCaP cells [4]; LH for 4 hours, 0.1 and 1.0 IU/ml, compared to controls) was “dose-dependent increase”, the steroidogenic gene expression (22Rv1 cells; 22RV1 cells, LH for 4 hours and 10 days) was “dose- and time-dependent increase” and the “number of significantly up-regulated genes, ten day vs short-term exposure” value (22Rv1 cells; 22Rv1 cells, LH 1.0 IU/ml) was “tripled”. For the same substance, the “increase in the expression levels of up-regulated genes” value (22Rv1 cells; 22Rv1 cells, LH 1.0 IU/ml, ten day treatment, compared to controls) was 2-6 fold, the “densitometric measurement of expression of proteins” value (LNCaP cells [5]) was “approximately two-fold increase” and the “expression of the steroidogenic proteins StAR, CYB5B, CYP11A and 3βHSD” value (LNCaP cells [5]; compared to untreated controls) was “increased expression”. For the same substance, the production of progesterone (LNCaP cells [6]) was “significantly stimulated; also recorded: significantly increased; also recorded: significant increase” and the production of testosterone (LNCaP cells [6]) was “significantly stimulated; also recorded: significantly increased; also recorded: significant increase”.
